The entries are a selection whose mix differs from that of the whole data set. Active and inactive are the calls of the source. Calls follow the shape of the dose curve; as a rule, active = well fitted activation curve with a large enough effect; inconclusive = small, poorly fitted or top-dose-only effect; inactive = no such curve, though single readings can be large or run the other way.

Chains of the proteins cited; added tags and fusions are not shown.
UniProt O95398, whole entry: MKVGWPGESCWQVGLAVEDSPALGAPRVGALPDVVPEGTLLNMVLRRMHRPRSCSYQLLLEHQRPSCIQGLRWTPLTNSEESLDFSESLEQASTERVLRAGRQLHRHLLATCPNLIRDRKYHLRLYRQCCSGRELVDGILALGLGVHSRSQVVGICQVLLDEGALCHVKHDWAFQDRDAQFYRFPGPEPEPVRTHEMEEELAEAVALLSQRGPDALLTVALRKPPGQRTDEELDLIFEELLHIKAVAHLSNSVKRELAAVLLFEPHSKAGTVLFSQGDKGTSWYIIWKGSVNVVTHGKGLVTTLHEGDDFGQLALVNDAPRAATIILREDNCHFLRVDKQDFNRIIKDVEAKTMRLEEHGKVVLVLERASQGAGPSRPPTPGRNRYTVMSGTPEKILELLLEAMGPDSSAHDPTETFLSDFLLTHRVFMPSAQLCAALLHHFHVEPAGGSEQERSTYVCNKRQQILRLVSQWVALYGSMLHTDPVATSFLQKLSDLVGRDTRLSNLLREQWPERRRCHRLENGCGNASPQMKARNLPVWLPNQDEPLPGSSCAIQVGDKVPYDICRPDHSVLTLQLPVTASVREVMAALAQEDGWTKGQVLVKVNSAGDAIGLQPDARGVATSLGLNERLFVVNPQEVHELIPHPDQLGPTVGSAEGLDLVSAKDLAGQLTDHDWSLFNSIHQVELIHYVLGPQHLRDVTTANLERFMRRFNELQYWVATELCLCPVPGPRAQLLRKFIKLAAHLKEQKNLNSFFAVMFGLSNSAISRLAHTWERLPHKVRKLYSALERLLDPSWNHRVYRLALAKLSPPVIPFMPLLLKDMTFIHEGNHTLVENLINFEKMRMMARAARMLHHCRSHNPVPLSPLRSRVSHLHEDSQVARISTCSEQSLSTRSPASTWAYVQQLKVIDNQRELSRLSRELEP

For this assay, the target named is Rap guanine nucleotide exchange factor 3 (Homo sapiens) (UniProt O95398). The assay can be described thus: qHTS for Agonist of cAMP-regulated guanine nucleotide exchange factor 3 (EPAC1): primary screen. Also: nearly all actives have a fitted effect of over 60% in size. The note with it: biochemical assay, 100% = response to 6.5 mM cAMP; at 154 µM (top of the series). The source says: In multi-cellular eukaryotic organisms, the effects of cAMP are transduced by two ubiquitously-expressed intracellular cAMP receptors, the classic protein kinase A/cAMP-dependent protein kinase (PKA/cAPK) and the more recently discovered exchange protein directly activated by cAMP/cAMP-regulated guanine nucleotide exchange factor (EPAC/cAMP-GEF). Both PKA and EPAC are ubiquitously expressed in all tissues, and an increase in intracellular cAMP levels will lead to the activation of both PKA and EPAC. […]
This qHTS will be used to screen the Molecular Libraries Small Molecule Repository (MLSMR) as a concentration-titration series using the NCGC unique quantitative screening (qHTS) platform to find activators for EPAC1. […] Activators are identified by monitoring the change in fluorescence signal as the exchanged free BODIPY-GDP has a reduced fluorescence compared to Rap1-bound BODIPY-GDP. […]
Briefly, three uL of reagents (100 nM EPAC1, 250 nM RAP1B-BODIPY-GDP, 50 uM GDP) were dispensed into a 1536-well Greiner black solid-bottom medium binding assay plate. […] The assay plates were read at 5 minute intervals for 30 minutes in the ViewLux plate reader using 480nm excitation and 540nm emission filters. […]
On to `CCC(=O)N(c1ccccc1)C1(COC)CCN(CCc2cccs2)CC1`, for which the activation is inactive: -11%. With `CCC(=O)N(c1ccccc1)C1(COC)CCN(CCn2nnn(CC)c2=O)CC1`, the activation was inactive: -16.7%.
